For this assay, the target named is T1, MDR pumps (Pdr5p) of yeast cells (Saccharomyces cerevisiae, UniProt P33302).
T1 construct: We measured the efflux of R6G from intact yeast cells using fluorometric method; endogenous in cells; host or cells: S. cerevisiae W303-1A (WT); AD1-8 as MDR-negative control
Format: cell-based. The settings on record: 2 μM compound. The method, then: The ordinate corresponds to the ratio of slopes in a and b.
To measure the relative rate of rhodamine 6G efflux we used fluorometric assay implemented by Kolaczkowsky et al., with few modifications. Cells were grown overnight in 40 ml in liquid YPD to density of 0.5-1*10^7 cells/ml, washed twice with cold sterile water and resuspended in 10 ml phosphate buffer saline supplemented with 5 mM 2-deoxyglucose and 2.5 mM 2,4-dinitrophenol. Cell suspension was incubated for 45 minutes on a rotatory shaker, then the inhibitors were removed by two cycles of centrifugation/resuspension in cold water. The energy deprived cells were resuspended in 10 ml of PBS and then stained with R6G (10 μM) for 30 minutes. Then cell suspension was pelleted, resuspended in equal volume of PBS and stored on ice for 1-5 hours. The measurements of efflux were performed with FluoroMax-3 fluorometer system with exication wavelength set to 480 nm, and emission wavelength set to 560 nm. The R6G efflux was initiated by addition of 0.1% glucose, cell density in fluorometric cuvette was 10^6 cells/ml.

Sequences of proteins named here, by UniProt entry; tags and fusion partners are left off. A change or cut given only in a name is not applied to a line headed by its entry.
UniProt P33302: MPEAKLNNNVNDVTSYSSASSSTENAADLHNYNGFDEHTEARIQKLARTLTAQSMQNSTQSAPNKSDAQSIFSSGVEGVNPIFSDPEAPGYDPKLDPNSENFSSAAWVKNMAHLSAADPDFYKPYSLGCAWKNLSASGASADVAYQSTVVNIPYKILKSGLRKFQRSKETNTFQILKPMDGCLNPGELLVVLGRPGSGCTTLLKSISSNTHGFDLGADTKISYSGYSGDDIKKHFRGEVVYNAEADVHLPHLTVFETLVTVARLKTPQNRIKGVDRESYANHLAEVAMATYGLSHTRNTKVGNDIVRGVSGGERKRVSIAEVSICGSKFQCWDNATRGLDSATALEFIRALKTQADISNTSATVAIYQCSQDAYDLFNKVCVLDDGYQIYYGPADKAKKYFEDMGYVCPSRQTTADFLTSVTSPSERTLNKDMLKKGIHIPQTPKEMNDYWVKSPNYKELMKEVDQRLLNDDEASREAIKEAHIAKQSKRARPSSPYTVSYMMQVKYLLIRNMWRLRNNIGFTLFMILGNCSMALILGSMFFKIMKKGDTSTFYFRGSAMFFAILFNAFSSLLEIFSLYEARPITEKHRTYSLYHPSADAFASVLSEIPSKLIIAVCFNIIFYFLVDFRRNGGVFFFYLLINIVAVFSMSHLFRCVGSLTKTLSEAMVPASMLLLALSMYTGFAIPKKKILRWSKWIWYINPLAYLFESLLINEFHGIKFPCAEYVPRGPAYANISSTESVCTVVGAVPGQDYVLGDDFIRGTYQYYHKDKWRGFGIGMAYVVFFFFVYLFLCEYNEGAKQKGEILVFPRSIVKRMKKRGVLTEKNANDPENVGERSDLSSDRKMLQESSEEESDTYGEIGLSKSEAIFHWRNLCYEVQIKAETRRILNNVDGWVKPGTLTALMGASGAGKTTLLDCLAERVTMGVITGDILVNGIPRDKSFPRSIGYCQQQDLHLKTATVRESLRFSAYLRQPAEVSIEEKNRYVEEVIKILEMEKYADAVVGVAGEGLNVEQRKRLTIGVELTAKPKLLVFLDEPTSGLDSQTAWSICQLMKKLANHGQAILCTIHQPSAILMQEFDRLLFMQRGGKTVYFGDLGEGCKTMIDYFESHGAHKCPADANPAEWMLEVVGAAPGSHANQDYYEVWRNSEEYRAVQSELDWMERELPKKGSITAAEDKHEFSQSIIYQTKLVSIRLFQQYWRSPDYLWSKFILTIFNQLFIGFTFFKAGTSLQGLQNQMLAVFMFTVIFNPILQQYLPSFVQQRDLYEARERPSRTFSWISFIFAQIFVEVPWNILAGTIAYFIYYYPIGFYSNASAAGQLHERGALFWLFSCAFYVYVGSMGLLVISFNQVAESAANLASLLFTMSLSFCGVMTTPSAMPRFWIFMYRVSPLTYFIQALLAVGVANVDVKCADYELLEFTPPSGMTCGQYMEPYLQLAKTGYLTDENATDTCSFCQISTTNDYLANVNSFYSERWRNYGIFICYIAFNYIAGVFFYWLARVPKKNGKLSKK

With “cyanide p-trifluoro-methoxyphenyl hydrazone [FCCP, reference compound]”, the “inhibition of glucose-induced R6G efflux from yeast cells” value was “partially prevent R6G efflux”. The “inhibition of glucose-induced R6G efflux from yeast cells pretreated with NaN3” value (cells pretreated with 10 mM NaN3) was “inhibits glucose-induced R6G efflux”.

Source of the values: patent publication US20170128467A1, “ANTIMICROBIAL PHARMACEUTICAL COMPOSITIONS WITH MULTIPLE DRUG RESISTANCE INHIBITING PROPERTIES” (priority 2014, published 2017).
